## Ab-14 heavy chain CDR variants: yeast mating affinities

From the AlphaSeq antibody data of Li et al. 2023 (doi:10.1038/s41467-023-39022-2), copy in the FLAb collection.

Target peptide (SARS-CoV-2 spike, HR2 region): PDVDLGDISGINAS

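The starting antibody came from a phage panning campaign against this peptide. The variants were designed computationally from a first round of random CDR variants and then made and measured. Group labels follow the data file (Ctrl: baseline library sampled from a position-specific scoring matrix, with some repeated check sequences; Rand: our label for a block that the file lists under HC and that is probably the random mutants of the ten best first-round binders; GP: Gaussian process model; GPLM: also part of the Gaussian process libraries; HC: hill climbing; Gen: genetic algorithm; Gibbs: Gibbs sampling; a sequence that several methods proposed may carry one label only). In AlphaSeq, yeast of one mating type display the scFv and yeast of the other type display the target. Mating (16 h, 30 °C) was followed by selection of diploids and sequencing of their barcodes. Each replicate has its own calibration line, from reference interactions of the BCL2 family. Each pool was mated in six replicate cultures.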

Each scFv is VH, the linker GGGGSGGGGSGGGGS, VL, as in the parent Ab-14, and differs from it in the CDRs of the heavy chain only.
VH: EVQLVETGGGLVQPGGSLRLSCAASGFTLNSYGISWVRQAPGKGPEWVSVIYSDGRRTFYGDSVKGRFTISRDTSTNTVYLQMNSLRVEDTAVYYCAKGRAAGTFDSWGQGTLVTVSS
VL: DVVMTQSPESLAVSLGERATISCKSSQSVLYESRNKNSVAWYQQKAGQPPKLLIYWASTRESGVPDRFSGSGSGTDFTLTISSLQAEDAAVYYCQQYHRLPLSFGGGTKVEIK

Each variant is given by its three heavy chain CDRs, as the data file delimits them; those of the parent are GFTLNSYGIS, VIYSDGRRTFYGDSVK, GRAAGTFDS. Variants here have at most six changes. Numbers give log10(Kd / nM), so 0 is 1 nM and 3 is 1 µM. Smaller is tighter. Replicates are averaged; those with no signal do not enter the mean. "no signal" marks a missing value. The strain was present, yet no cells mated with the target were sequenced in any replicate, which points to weak or no binding.

* GFSLNNYGIS / VIYSDGKRTFYGDSVK / GRQAGTFDS [GPLM_Gibbs] -> 1.90 (6 of 6 replicates; controls 0 of 18)
* GFTLNEYGIS / VIYSDGRRTFYTDSVK / GSAAGTFDL [GP_HC] -> 0.09 (6 of 6 replicates; controls 0 of 18)
* GFSLNSYGIS / VIYSDGRRTFYADSVK / GSEAGTFDN [GP_Gibbs] -> -0.40 (6 of 6 replicates; controls 0 of 18)
* GFSLNSYGIS / VIYSDGRRTFYGDPVK / GQTAGTFDS [GPLM_Gen] -> 1.06 (4 of 6 replicates; controls 0 of 18)
* GFTLNSYGIS / VIYSDGRRTFYEDSVK / GRWAGTFDS [Ctrl] -> no signal (0 of 6 replicates; controls 0 of 18)
* GFTLNSYGIS / VIYSDGRRTFYSDSVK / TRAGGTFDK [Rand] -> 1.85 (2 of 6 replicates; controls 0 of 18)
* GKTLNDYAIS / VIYSDGRRTQYIDSVK / GRAAGTFDS [Rand] -> 1.83 (3 of 6 replicates; controls 0 of 18)
* GFTLNSYGRS / VIYSDGRRTFYGDSVK / GRAPGTFDS [Ctrl] -> no signal (0 of 6 replicates; controls 0 of 18)
* KFTLNEYGIS / VIYSDGRRTFYGDSVK / GRNAGTFDS [GP_HC] -> 2.47 (3 of 6 replicates; controls 0 of 18)
* GFELNSYGIS / VIYSDGRRTFYADDVK / GNAAGTFDS [GP_Gen] -> 0.77 (3 of 6 replicates; controls 0 of 18)
* GFSLLSYGIS / VIYSDGLRVFYRDSVK / GRAAGTFDS [Ctrl] -> no signal (0 of 6 replicates; controls 0 of 18)
* GFTLNDYGIS / VIYSDGRRTFYGDNVK / TRAPGTFDL [Ctrl] -> no signal (0 of 6 replicates; controls 0 of 18)
* GFTLNMYGIS / VIYSDGRRTFYGDSVK / GSAAGTFDS [Ctrl] -> 1.14 (6 of 6 replicates; controls 0 of 18)
* GFTLNSYGIS / VIYSDGVRTYYADSVK / GRAAGTFDL [Ctrl] -> 0.85 (4 of 6 replicates; controls 0 of 18)
* GFSLNSYGIS / VIYSDGRRTFYGDDVK / GVTAGTFDS [GP_Gibbs] -> 0.22 (6 of 6 replicates; controls 0 of 18)
* GFDLNSYGIS / VIYSDGRRTFYDDSVK / GRQAGTFDS [GP_Gen] -> -0.03 (6 of 6 replicates; controls 0 of 18)
* GFNLNSYGIS / VIYSDGRRTFYADPVK / GNAAGTFDN [GP_Gibbs] -> 1.05 (4 of 6 replicates; controls 1 of 18)
* GFTLSEYGIS / VIYSDGRRTFYNDSVK / GRAHGLFDV [Ctrl] -> no signal (0 of 6 replicates; controls 1 of 18)
* GFDLNSYGIS / VIYSDGRRTFYSDSVK / GIAGGTFDS [GPLM_HC] -> 0.60 (2 of 6 replicates; controls 0 of 18)
* GFSLNEYGIS / VIYSDGRRTFYADSVK / GRAAGTFDT [GPLM_Gen] -> -0.30 (6 of 6 replicates; controls 0 of 18)
* GFTLNSYGIS / VIRSDGRRTFYGDSVK / GRAAGTFTS [Ctrl] -> no signal (0 of 6 replicates; controls 0 of 18)
* GFSLNDYGIS / VIYSDGRRTFYGDSVK / GRMAGTFDS [GPLM_Gen] -> 0.53 (6 of 6 replicates; controls 0 of 18)
* GVTLNDYGKS / VIYSDGRRTFYGDSVK / GRAALHFIS [Rand] -> no signal (0 of 6 replicates; controls 0 of 18)
* GFELNSYGIS / VIYSDGRRTFYIDSVK / GKVAGTFDS [GP_Gen] -> 0.45 (6 of 6 replicates; controls 0 of 18)
* GFTLNSYGIS / VIYSDGRRTEYGDSVK / GFIAGTFDS [Ctrl] -> 0.12 (6 of 6 replicates; controls 0 of 18)
* GFTLDDYGIS / VIYSDGRRTFYGDSVK / GRAAGTFDQ [Ctrl] -> 1.29 (6 of 6 replicates; controls 0 of 18)
* GFNLNSYGIS / VIYSDGRRTFYNDSVK / GRNAGIFDS [Ctrl] -> no signal (0 of 6 replicates; controls 0 of 18)
* GFNLNSYGIS / VIYSDGRRTFYKDSVK / GKAAGTFDS [GPLM_Gibbs] -> no signal (0 of 6 replicates; controls 0 of 18)
* GFSLNDYGIS / VIYSDGRRTFYGDQVK / GRTAGTFDS [GPLM_Gen] -> -0.15 (6 of 6 replicates; controls 0 of 18)
* GFSLNSYGIS / VIYSDGRRTFYADSVK / GEAAGTFDN [GPLM_Gen] -> 0.34 (6 of 6 replicates; controls 0 of 18)
* GFFLNDYGIS / VIYSDGRRTFYTDSVK / GTAAGTFDS [GP_HC] -> 0.26 (6 of 6 replicates; controls 0 of 18)
* GMTLNKYGIS / VIYSDGRRTFYGDSVK / VRAALTFIS [Rand] -> no signal (0 of 6 replicates; controls 1 of 18)
* GFSLNSYGIS / VIYADGRRTFYGDSVK / GQAAGTFDS [GPLM_Gen] -> -0.24 (6 of 6 replicates; controls 0 of 18)
* GFTLNDYGIS / VIVSDGRRTFYGDSVK / GRAALTFIS [Rand] -> no signal (0 of 6 replicates; controls 0 of 18)

The first 4 entries again:

| CDR-H1 | CDR-H2 | CDR-H3 | group | mean, log10 nM | replicates with signal | empty controls |
|---|---|---|---|---|---|---|
| GFSLNNYGIS | VIYSDGKRTFYGDSVK | GRQAGTFDS | GPLM_Gibbs | 1.90 | 6/6 | 0/18 |
| GFTLNEYGIS | VIYSDGRRTFYTDSVK | GSAAGTFDL | GP_HC | 0.09 | 6/6 | 0/18 |
| GFSLNSYGIS | VIYSDGRRTFYADSVK | GSEAGTFDN | GP_Gibbs | -0.40 | 6/6 | 0/18 |
| GFSLNSYGIS | VIYSDGRRTFYGDPVK | GQTAGTFDS | GPLM_Gen | 1.06 | 4/6 | 0/18 |

The range of this assay differs from that of the first round, and the authors advise against merging the two. The parent sequence was in this pool as ten entries: three were never detected, three once, and four in most replicates, with averages from 0.34 to 2.37. As a blank, each scFv also met three strains without target: over all heavy chain designs, 1% of these pairings were detected, typically at 2.08 and seldom below 0.84. Also given: how often the same scFv was detected with the empty control strains. The authors' rule: three or more of the six replicates give a measured affinity, fewer mean a poor binder.